This is an account of results in patent US20100260668A1 (published 2010).

Amino acid sequences for entries named in this document (tags omitted). Chains listed by the source or under a name are the forms on record and can include a tag or linker.
UniProt P15692, other isoform, or with tags, fused parts or gaps limits assumed: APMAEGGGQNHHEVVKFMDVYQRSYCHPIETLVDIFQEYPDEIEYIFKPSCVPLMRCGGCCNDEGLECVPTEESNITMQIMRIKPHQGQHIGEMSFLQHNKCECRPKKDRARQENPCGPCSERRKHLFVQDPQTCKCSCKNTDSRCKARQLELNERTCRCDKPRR

The target in assay [1] is recombinant human VEGF165 (human, UniProt P15692-4 27-191). In words: cell-based or functional assay.
Assay [2] has as its target biotinylated VEGF (UniProt P15692-4 27-191, limits assumed, biotinylated). In words: VEGF capture ELISA, antibody captured by anti-human Fc, biotinylated VEGF. A general note: An ELISA detects its analyte on a solid surface through an enzyme-linked reagent.
Assay [3] addresses T1, VEGF 1-165 aa (UniProt P15692 27-191).
T1 construct: Bought antigen coated on the ELISA plate
The assay can be described thus: direct bind ELISA (ref Ab).

Assay [4] concerns the target T2, VEGF (UniProt P15692 27-191, limits assumed).
T2 construct: bought antigen coated on the ELISA plate
In words: direct bind ELISA, reference antibody.

Assay [5] addresses T3, VEGF (UniProt P15692 27-191, limits assumed).
T3 construct: Bought antigen coated on the ELISA plate; also called vascular endothelial growth factor
The assay can be described thus: direct bind ELISA, antigen on plate; reference antibody.

The target of assay [6] is T4, VEGF (VEGF 1-165 aa, R&D Systems 293-VE-010) (UniProt P15692 27-191).
T4 construct: bought reagent; also called vascular endothelial growth factor
The assay can be described thus: Direct bind ELISA, VEGF coated on plate; reference antibody printed beside DVD489.

The target of assay [7] is T4, VEGF (VEGF 1-165 aa, R&D Systems …). In words: Direct bind ELISA, VEGF coated on plate; reference antibody printed beside DVD502.
Assay [8] has the same target. In words: Direct bind ELISA, VEGF coated on plate; reference antibody printed beside DVD508.
The target is the same in assay [9]. The assay can be described thus: Direct bind ELISA, VEGF coated on plate; reference antibody printed beside DVD501.
The target is the same in assay [10]. In words: Direct bind ELISA, VEGF coated on plate; reference antibody printed beside DVD507.
The target is the same in assay [11]. In words: Direct bind ELISA, VEGF coated on plate; reference antibody printed beside DVD513.
The target is the same in assay [12]. In words: Direct bind ELISA, VEGF coated on plate; reference antibody printed beside DVD519.
The target is the same in assay [13]. In words: Direct bind ELISA, VEGF coated on plate; reference antibody printed beside DVD514.
The target is the same in assay [14]. The assay can be described thus: Direct bind ELISA, VEGF coated on plate; reference antibody printed beside DVD496.
The target is the same in assay [15]. The assay can be described thus: Direct bind ELISA, VEGF coated on plate; reference antibody printed beside DVD526.
Assay [16] has the same target. The assay can be described thus: Direct bind ELISA, VEGF coated on plate; reference antibody printed beside DVD520.
Assay [17] shares this target. In words: Direct bind ELISA, VEGF coated on plate; reference antibody printed beside DVD525.
Assay [18] has the same target. The assay can be described thus: Direct bind ELISA, VEGF coated on plate; reference antibody printed beside DVD531.
Assay [19] has the same target. In words: Direct bind ELISA, VEGF coated on plate; reference antibody printed beside DVD490.
For assay [20] the target is unchanged. The assay can be described thus: Direct bind ELISA, VEGF coated on plate; reference antibody printed beside DVD495.
Assay [21] has the same target. In words: Direct bind ELISA, VEGF coated on plate; reference antibody printed beside DVD532.
Assay [22] deals with T5, VEGF (biotinylated VEGF; VEGF165) (UniProt P15692-4 27-191, biotinylated (sites not given)).
T5 construct: the method paragraph says only 'biotinylated VEGF'
In words: competition ELISA: antibody pre-incubated with 2 nM biotinylated VEGF, then on coated VEGFR1 ECD-Fc (competitor VEGFR1-Fc).

Values joined by “and” are separate entries in the source; they are usually repeats but may differ in a detail not shown here. Equal values may be shown once.

B1: AB070 (antibody, human IgG1, kappa, V domains shown)
VH: EVQLVESGGGLVQPGGSLRLSCAASGFTISDYWIHWVRQAPGKGLEWVAGITPAGGYTYYADSVKGRFTISADTSKNTAYLQMNSLRAEDTAVYYCARFVFFLPYAMDYWGQGTLVTVSS
VL: DIQMTQSPSSLSASVGDRVTITCRASQDVSTAVAWYQQKPGKAPKLLIYSASFLYSGVPSRFSGSGSGTDFTLTISSLQPEDFATYYCQQSYTTPPTFGQGTKVEIKR
In the case of B1, in [1], the “inhibition of HUVEC proliferation (IC50)” value is 7 nM.

B2: AB070 (antibody, human IgG1, kappa, V domains shown)
VH: B1 VH
VL: B1 VL
Turning to B2, the EC50 in [2] turned out to be 0.35 nM.

B3: AB070 (antibody, human IgG1, kappa, V domains shown)
VH: B1 VH
VL: B1 VL
notes: Vectors V1/V2
For B3, the EC50 in assay [3] is 5.22 nM and 4.64 nM and 5.62 nM.

B4: AB070 (antibody, human IgG1, kappa, V domains shown)
VH: B1 VH
VL: B1 VL
In the case of B4, the EC50 in assay [4] was 2.35 nM and 1.68 nM.

B5: AB070 (antibody, human IgG1, kappa, V domains shown)
VH: B1 VH
VL: B1 VL
notes: also called AB070VH; AB070VL
Molecule B5 displayed an EC50 in [5] of 1.9 nM.

B6: AB070 (antibody, human IgG1, kappa, V domains shown)
VH: B1 VH
VL: B1 VL
notes: Parent anti-VEGF antibody
Consider B6, for which the EC50 in assay [6] was determined as 2.8 nM; in [7], 2.44 nM; in assay [8], 2.44 nM; in assay [9] it was 2.44 nM; in [10], 2.44 nM; in [11], 0.97 nM. The EC50 in assay [12] was 0.97 nM; in assay [13], 0.97 nM; in [14], 2.8 nM; in assay [15] it was 1.42 nM; in assay [16], 0.97 nM; in [17] it was 1.42 nM. Also, the concentration for a half-maximal effect (EC50) was 1.42 nM in [18], 2.8 nM in assay [19], 2.8 nM in assay [20] and 1.42 nM in assay [21].

B7: AB070 (anti-VEGF parent antibody; VEGF (seq. 2) in Table 2, called VEGF (Seq. 3) in the assay tables) (antibody, human IgG1, kappa, V domains shown)
VH: B1 VH
VL: B1 VL
notes: also called AB070VH/AB070VL
In the case of B7, the IC50 in assay [22] turned out to be 2.8 nM.

Usually EC50 stands for the concentration needed to bring the measured effect to its halfway point. A higher EC50 goes with lower potency in that assay. A word on the IC50: it is the concentration that gives 50% inhibition. Low values mean greater potency in that assay, high ones weaker potency in that assay.
